Data taken from US20100008912A1, “COMBINATION DRUG” (TAKEDA PHARMACEUTICAL COMPANY LIMITED, priority 2006, published 2010).

Tested on: N87 (gastric cancer)
Test: Cell growth determination test of combined use, Combination Index, N87
Type: cell-based, human
Settings: combined use with compound A
Method: The cell density of the cell suspension was measured by cell counter Sysmex CDA500, and the cell density was adjusted to 4×10^4 cell/mL using the aforementioned medium, which was dispensed to each well of a 96 well multi-well culture plate (Nunc) by 0.15 mL and cultured overnight at 37° C., 5% CO2. […] After culturing at 37° C., 5% CO2 for 5 days, the cells of each well were fixed, stained and subjected to colorimetry. The effect of the combined use was determined by the method of Chou T C, Talalay P Adv.
The effect of combined use was determined by the method of Chou T C, Talalay P Adv.

COc1cccc2c1C(=O)c1c(O)c3c(c(O)c1C2=O)C[C@@](O)(C(=O)CO)C[C@@H]3O[C@H]1C[C@H](N)[C@H](O)[C@H](C)O1 [doxorubicin hydrochloride]
Combination Index at the time of inhibition of cell growth by 50%: 1.01

Where a name gives a salt, the structure may show the parent alone.
